Assay [1] has as its target Nitric oxide synthase, inducible (Homo sapiens, UniProt P35228). Nature of the assay: Inhibition of human Inducible nitric oxide synthase.
The next assay has as its target T1, Nitric oxide synthase 3 (Homo sapiens, UniProt P29474).
T1 sequence (P29474 whole entry): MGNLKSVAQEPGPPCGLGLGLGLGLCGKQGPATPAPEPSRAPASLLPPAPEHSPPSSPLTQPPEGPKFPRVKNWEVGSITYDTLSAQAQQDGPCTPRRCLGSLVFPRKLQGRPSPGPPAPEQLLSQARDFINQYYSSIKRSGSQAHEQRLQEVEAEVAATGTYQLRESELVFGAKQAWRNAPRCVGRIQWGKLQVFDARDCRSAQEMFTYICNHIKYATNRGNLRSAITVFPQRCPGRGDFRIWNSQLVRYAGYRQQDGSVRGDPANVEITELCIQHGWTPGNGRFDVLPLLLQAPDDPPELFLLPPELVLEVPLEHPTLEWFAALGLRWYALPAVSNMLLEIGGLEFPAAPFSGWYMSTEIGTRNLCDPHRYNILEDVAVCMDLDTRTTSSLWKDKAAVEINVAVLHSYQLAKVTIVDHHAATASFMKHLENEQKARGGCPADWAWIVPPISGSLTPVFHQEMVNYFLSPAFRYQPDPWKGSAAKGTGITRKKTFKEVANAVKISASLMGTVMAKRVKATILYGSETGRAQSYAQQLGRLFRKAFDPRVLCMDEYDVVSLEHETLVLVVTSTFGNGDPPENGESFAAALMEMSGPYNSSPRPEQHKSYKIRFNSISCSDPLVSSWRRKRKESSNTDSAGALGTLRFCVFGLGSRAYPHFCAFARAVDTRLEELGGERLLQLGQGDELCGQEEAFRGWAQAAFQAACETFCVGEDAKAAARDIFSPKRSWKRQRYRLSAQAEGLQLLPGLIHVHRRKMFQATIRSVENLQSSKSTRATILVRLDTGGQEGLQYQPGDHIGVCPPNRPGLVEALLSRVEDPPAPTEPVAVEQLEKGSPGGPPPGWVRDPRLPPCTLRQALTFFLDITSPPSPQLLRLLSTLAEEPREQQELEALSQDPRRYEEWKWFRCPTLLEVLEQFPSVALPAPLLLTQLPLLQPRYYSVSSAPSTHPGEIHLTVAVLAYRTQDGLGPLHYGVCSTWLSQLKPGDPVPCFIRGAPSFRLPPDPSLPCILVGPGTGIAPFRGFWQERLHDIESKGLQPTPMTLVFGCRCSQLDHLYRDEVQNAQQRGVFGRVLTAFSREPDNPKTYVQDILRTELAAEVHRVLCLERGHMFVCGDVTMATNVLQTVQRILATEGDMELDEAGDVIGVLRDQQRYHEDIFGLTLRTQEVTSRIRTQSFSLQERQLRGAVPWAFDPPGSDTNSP
Nature of the assay: inhibition of human endothelial constitutive Endothelial nitric oxide synthase (heNOS).

Amino acid sequences for entries named in this document (tags omitted).
UniProt P35228, whole entry: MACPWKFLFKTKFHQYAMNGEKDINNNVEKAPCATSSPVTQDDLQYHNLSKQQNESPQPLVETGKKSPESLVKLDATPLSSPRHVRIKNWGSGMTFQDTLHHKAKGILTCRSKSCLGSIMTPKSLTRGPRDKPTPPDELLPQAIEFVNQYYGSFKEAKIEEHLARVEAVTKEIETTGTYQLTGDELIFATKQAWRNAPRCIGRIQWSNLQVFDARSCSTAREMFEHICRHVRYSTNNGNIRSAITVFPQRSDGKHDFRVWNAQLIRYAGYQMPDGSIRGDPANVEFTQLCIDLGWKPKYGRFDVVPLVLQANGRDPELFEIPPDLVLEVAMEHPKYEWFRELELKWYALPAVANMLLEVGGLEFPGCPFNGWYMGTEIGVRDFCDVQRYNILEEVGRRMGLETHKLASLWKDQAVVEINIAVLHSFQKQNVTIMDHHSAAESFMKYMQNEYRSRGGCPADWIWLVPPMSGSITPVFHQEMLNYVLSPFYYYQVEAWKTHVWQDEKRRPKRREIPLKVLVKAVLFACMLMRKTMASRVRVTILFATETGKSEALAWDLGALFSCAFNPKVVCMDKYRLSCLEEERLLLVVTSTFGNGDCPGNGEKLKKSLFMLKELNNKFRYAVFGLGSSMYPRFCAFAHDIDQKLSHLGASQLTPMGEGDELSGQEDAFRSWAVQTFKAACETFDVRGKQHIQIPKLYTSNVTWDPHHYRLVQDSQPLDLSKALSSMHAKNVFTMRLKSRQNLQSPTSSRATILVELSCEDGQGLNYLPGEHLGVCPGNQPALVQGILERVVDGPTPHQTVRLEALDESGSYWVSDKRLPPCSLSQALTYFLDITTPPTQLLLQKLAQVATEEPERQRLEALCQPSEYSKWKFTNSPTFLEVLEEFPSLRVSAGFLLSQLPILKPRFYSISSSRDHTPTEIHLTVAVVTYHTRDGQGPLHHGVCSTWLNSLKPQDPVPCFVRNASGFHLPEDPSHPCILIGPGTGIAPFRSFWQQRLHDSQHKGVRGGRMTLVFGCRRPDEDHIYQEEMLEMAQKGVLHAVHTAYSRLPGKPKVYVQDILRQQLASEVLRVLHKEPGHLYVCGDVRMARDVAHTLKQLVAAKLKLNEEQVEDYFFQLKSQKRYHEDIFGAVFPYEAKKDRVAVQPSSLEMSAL
UniProt P29475, whole entry: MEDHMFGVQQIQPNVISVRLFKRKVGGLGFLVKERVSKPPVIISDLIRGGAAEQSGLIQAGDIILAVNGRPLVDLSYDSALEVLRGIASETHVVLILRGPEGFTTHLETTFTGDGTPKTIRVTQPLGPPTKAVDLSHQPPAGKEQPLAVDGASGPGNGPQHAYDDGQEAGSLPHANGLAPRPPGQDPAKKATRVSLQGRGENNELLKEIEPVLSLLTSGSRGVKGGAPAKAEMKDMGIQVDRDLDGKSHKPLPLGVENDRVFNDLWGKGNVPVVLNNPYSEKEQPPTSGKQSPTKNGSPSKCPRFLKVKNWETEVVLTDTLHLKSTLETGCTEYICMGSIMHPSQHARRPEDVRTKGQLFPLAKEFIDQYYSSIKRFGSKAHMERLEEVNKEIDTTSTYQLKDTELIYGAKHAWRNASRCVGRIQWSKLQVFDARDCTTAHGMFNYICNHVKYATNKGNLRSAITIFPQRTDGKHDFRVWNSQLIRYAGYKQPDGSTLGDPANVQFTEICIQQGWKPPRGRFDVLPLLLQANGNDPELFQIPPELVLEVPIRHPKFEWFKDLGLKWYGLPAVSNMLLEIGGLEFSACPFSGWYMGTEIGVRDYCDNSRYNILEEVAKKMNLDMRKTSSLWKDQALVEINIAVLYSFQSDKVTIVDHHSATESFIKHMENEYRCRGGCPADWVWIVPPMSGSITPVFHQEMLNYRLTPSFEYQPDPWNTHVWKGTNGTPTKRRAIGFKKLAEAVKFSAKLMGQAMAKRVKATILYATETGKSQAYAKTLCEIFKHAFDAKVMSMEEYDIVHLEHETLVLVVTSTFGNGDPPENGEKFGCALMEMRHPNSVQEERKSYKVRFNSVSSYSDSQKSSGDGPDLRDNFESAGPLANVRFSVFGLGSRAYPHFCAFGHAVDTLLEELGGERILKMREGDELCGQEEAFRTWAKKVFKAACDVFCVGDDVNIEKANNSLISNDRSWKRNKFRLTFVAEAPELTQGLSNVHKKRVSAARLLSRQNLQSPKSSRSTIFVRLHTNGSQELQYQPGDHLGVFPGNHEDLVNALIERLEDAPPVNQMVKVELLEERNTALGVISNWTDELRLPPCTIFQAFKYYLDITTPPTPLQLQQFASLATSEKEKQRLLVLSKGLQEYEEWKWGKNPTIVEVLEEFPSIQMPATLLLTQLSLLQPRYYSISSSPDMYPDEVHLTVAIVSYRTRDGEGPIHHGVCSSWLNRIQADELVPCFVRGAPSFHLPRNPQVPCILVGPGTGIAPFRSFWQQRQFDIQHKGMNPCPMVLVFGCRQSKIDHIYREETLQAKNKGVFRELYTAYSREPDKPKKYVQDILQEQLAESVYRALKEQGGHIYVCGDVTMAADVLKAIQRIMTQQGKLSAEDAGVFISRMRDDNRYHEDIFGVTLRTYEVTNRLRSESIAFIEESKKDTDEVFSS

In another assay the target is Nitric oxide synthase 1 (Homo sapiens, UniProt P29475). The experiment in a line: Inhibition of human Neuronal nitric oxide synthase.

As a reminder, the IC50 is the concentration needed to halve the response being measured.

As to `NC1=NC(Cc2ccccc2)CCC1` (stereo not drawn), the figures for the half-maximal inhibitory concentration (IC50) (in assay [1]; against Nitric oxide synthase 3) were 9.2 µM and 44 µM, respectively.

Regarding `CC1CCC(N)=NC1` (stereo not drawn), the IC50 against Nitric oxide synthase 1 is 4.5 µM.

Values taken from ChEMBL document CHEMBL1131208, “Substituted 2-iminopiperidines as inhibitors of human nitric oxide synthase isoforms” (J Med Chem, 1998).
